Test results taken from PubChem BioAssay (NCI).
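How tested: cells in 96-well plates exposed to compound for 48 hours at five concentrations. Abbreviation: GI50, concentration required for 50% inhibition of growth.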

Columns and labels:
Assay in all cases: inhibition of tumour cell growth, NCI panel, 48 h; in the data active means GI50 below about 0.43 µM; inactive means the rest
[1] = tested on: 786-0 renal
[2] = tested on: A498 renal
[3] = tested on: A549 NSCLC
[4] = tested on: ACHN renal
[5] = tested on: CCRF-CEM leukemia
[6] = tested on: COLO 205 colon
[7] = tested on: DU-145 prostate
[8] = tested on: EKVX NSCLC
[9] = tested on: HCC-2998 colon
[10] = tested on: HCT-116 colon
[11] = tested on: HL-60(TB) leukemia
[12] = tested on: HOP-62 NSCLC
[13] = tested on: HOP-92 NSCLC
[14] = tested on: HT29 colon
[15] = tested on: IGROV1 ovarian
[16] = tested on: K-562 leukemia
[17] = tested on: KM12 colon
[18] = tested on: LOX IMVI melanoma
[19] = tested on: M14 melanoma
[20] = tested on: MALME-3M melanoma
[21] = tested on: MCF7 breast
[22] = tested on: MDA-MB-231 breast
[23] = tested on: MDA-MB-435
[24] = tested on: MOLT-4 leukemia
[25] = tested on: NCI-H226 lung
[26] = tested on: NCI-H23 lung
[27] = tested on: NCI-H460 lung
[28] = tested on: NCI/ADR-RES ovarian
[29] = tested on: OVCAR-4 ovarian
[30] = tested on: OVCAR-5 ovarian
[31] = tested on: OVCAR-8 ovarian
[32] = tested on: RPMI-8226 leukemia
[33] = tested on: RXF 393 renal
[34] = tested on: SF-268 CNS
[35] = tested on: SF-295 CNS
[36] = tested on: SF-539 CNS
[37] = tested on: SK-MEL-28 melanoma
[38] = tested on: SK-MEL-5 melanoma
[39] = tested on: SK-OV-3 ovarian
[40] = tested on: SN12C renal
[41] = tested on: SNB-19 CNS
[42] = tested on: SNB-75 CNS
[43] = tested on: SR leukemia
[44] = tested on: SW-620 colon
[45] = tested on: T-47D breast
[46] = tested on: TK-10 renal
[47] = tested on: U251 CNS
[48] = tested on: UACC-257 melanoma
[49] = tested on: UACC-62 melanoma
[50] = tested on: UO-31 renal

Measured: GI50

O=C1NC(=NC2CCCCC2)C2(CCN(CCc3ccccc3)CC2)N1c1ccccc1
inactive: [1] > 100 µM | [2] 68.4 µM | [3] > 100 µM | [4] > 100 µM | [5] > 100 µM | [6] > 100 µM | [7] > 100 µM | [8] > 100 µM | [9] > 100 µM | [10] > 100 µM | [11] 93.8 µM | [12] > 100 µM | [13] > 100 µM | [14] 51 µM | [15] > 100 µM | [16] 99.4 µM | [17] 59.5 µM | [18] > 100 µM | [19] > 100 µM | [20] > 100 µM | [21] > 100 µM | [22] > 100 µM | [23] > 100 µM | [24] 60.1 µM | [25] > 100 µM | [26] > 100 µM | [27] > 100 µM | [28] 46.1 µM | [29] 92.2 µM | [30] > 100 µM | [31] > 100 µM | [32] 77.4 µM | [33] > 100 µM | [34] > 100 µM | [35] > 100 µM | [36] > 100 µM | [37] > 100 µM | [38] > 100 µM | [39] > 100 µM | [40] > 100 µM | [41] 60.9 µM | [42] > 100 µM | [43] 65 µM | [44] > 100 µM | [45] 51.7 µM | [46] > 100 µM | [47] 79.1 µM | [48] 60.8 µM | [49] 78.8 µM | [50] 21.7 µM
